Read-outs that look alike come from different tables or passages of the source.

Protein sequences, listed by entry. Tags and fused reporters are not part of them. Lines headed by an entry give the natural chain unless they say otherwise; changes in a name come on top. Chains listed by the source or under a name are the forms on record and can include a tag or linker. Residues count along the entry.
UniProt Q8NHL6, 24-458: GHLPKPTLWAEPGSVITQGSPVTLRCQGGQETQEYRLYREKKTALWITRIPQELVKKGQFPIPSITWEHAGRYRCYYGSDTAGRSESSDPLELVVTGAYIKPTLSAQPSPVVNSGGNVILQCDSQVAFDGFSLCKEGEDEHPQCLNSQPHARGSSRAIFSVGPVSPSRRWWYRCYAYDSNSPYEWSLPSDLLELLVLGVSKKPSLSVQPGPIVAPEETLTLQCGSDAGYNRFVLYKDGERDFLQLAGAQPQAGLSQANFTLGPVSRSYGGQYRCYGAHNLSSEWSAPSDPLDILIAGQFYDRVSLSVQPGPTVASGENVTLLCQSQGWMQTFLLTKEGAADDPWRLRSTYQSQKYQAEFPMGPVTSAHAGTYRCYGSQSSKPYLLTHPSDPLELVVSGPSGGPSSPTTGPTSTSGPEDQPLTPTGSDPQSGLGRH
ECD-His tagged human ILT2 haplotype PE03, UniProt Q8NHL6, other isoform, or with tags, fused parts or gaps: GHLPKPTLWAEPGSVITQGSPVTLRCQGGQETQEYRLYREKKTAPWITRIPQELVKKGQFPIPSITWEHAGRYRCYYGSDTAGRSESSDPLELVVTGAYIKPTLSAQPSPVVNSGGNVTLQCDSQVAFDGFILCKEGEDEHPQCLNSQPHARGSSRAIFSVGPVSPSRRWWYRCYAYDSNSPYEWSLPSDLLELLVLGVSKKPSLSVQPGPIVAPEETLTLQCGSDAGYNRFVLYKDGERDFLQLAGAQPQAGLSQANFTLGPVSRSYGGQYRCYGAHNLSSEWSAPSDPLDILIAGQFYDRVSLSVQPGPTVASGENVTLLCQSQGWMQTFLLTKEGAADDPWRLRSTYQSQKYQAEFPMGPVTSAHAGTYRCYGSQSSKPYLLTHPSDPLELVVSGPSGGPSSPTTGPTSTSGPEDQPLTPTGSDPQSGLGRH
ECD-His tagged human ILT2 haplotype PE02, UniProt Q8NHL6, other isoform, or with tags, fused parts or gaps: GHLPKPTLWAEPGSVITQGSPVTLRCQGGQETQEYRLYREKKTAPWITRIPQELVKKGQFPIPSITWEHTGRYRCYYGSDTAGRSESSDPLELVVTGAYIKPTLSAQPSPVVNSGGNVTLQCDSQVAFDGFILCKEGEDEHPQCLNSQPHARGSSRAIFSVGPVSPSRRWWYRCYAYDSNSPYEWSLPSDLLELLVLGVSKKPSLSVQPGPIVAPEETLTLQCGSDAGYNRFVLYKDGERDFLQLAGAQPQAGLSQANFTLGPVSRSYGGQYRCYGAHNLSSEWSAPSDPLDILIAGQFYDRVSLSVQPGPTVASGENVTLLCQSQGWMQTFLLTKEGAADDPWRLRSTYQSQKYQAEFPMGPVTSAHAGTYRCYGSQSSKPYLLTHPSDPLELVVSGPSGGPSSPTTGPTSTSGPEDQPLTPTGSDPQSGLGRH
UniProt Q8NHL6, 24-482 limits assumed: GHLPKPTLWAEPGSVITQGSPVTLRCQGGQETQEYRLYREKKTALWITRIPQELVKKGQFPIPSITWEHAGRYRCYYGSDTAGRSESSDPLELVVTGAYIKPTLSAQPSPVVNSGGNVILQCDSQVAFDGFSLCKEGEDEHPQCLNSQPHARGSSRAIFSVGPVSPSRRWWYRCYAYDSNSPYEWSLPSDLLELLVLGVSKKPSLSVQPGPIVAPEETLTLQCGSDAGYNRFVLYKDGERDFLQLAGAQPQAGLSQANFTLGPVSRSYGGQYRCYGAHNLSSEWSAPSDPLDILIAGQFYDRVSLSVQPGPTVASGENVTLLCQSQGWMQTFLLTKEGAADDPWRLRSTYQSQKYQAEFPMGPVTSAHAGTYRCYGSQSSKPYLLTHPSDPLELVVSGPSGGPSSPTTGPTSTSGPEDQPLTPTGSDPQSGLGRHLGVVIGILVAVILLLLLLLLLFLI
UniProt Q8NHL6, 24-650: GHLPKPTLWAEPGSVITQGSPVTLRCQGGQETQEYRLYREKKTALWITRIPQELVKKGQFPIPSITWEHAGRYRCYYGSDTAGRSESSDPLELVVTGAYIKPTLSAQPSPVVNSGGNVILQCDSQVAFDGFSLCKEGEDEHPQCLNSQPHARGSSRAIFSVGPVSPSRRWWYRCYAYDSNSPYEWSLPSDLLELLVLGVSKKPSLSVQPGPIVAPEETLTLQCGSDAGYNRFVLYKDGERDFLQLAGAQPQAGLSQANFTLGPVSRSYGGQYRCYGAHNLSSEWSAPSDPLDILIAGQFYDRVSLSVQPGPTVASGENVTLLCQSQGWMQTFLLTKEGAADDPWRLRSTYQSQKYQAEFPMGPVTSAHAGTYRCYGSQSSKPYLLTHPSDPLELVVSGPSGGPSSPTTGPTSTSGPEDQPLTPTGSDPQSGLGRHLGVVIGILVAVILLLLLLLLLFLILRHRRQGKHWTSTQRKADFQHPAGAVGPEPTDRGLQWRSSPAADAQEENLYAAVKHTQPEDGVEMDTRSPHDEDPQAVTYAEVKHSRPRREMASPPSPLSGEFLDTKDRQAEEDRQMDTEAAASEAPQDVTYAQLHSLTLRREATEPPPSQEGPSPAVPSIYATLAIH
UniProt Q8N423, 22-458 limits assumed: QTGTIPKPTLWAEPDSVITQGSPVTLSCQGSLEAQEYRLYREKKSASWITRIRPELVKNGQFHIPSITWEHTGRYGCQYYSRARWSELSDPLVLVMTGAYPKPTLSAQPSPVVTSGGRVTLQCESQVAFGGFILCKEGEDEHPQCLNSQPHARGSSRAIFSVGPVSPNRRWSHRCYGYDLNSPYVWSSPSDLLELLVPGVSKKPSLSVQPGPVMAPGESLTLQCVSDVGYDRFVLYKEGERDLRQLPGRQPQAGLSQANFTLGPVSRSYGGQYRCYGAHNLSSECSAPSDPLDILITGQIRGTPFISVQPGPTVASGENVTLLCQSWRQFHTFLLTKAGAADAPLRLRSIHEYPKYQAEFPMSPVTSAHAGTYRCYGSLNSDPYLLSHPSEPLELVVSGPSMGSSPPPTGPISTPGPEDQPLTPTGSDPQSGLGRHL
UniProt Q8N149, 24-449 limits assumed: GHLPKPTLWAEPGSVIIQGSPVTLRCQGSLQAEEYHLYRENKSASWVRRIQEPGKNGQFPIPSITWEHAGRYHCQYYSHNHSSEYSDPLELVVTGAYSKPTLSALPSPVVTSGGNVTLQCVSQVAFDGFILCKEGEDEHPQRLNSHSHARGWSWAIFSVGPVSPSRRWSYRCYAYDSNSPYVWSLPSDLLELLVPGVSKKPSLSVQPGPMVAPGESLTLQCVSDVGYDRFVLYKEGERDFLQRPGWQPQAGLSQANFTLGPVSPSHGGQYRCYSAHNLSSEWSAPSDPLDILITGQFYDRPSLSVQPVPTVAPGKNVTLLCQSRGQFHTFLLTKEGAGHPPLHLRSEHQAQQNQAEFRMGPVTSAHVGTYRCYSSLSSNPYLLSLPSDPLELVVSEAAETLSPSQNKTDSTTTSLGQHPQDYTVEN
UniProt Q6PI73, 24-447 limits assumed: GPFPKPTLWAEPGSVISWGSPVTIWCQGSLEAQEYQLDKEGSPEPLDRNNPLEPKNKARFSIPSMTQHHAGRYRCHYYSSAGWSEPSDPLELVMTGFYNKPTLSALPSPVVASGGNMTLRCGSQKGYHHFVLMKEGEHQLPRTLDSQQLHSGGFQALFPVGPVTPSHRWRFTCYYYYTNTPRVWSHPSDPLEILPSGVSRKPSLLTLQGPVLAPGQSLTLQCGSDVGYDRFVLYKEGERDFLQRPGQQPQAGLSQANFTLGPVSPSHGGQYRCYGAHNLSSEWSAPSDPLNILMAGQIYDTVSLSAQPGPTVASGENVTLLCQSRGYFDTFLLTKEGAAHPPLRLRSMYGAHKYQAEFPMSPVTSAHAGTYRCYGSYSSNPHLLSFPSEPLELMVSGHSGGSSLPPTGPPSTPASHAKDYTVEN
UniProt A6NI73, 42-268 limits assumed: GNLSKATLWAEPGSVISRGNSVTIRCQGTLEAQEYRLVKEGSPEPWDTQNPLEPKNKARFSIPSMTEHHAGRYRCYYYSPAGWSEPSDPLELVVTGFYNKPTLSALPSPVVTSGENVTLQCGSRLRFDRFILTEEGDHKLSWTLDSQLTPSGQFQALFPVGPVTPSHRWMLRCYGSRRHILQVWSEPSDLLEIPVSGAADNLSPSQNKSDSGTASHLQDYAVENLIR

The target of assay [1] is T1, ECD-His tagged human ILT2 haplotype PE01 (human, UniProt Q8NHL6, in part).
T1 construct: also called Human ILT2 PE01 ECD; LILRB1/ILT2 PE01; not shown: His tag
Put plainly: SPR, ILT2 ECD-His. Here is the method: (§1) Briefly, SPR experiments were performed using a Biacore T200 instrument, and the association rate (Kₐ), dissociation rate (Kd), and dissociation constant (KD) were calculated from each experiment using a 1:1 binding model with Biacore™ T200 Evaluation Software. Capture of antibodies from the Human Fab Capture kit (28958325, GE Healthcare) to the Series S CM5 sensor chip (29149603, GE Healthcare) was performed using the immobilization wizard for amine coupling from the Biacore™ control panel and following the manufacturer's recommendations included with the kit.

For assay [2], the target named is T2, ECD-His tagged human ILT2 haplotype PE03 (human, UniProt Q8NHL6, in part).
T2 construct: also called Human ILT2 PE03 ECD (Sino biological, 16014-H08H); not shown: His tag
Description: SPR, ILT2 ECD-His. The method, then:
as §1

Assay [3] deals with T3, ECD-His tagged human ILT2 haplotype PE02 (human, UniProt Q8NHL6, in part).
T3 construct: also called Human ILT2 PE02 ECD; not shown: His tag
Put plainly: SPR, ILT2 ECD-His. Here is the method: as §1

The target in assay [4] is T4, human ILT2 extracellular and transmembrane domains expressed on CHO cells (human, UniProt Q8NHL6, in part).
T4 construct: domain: extracellular and transmembrane domains; which one is told under assay; also called CHO cells expressing human ILT2 (relatively low or relatively high level); CHO-ILT2 cells
Description: flow cytometry, blocking of PE HLA-B*07:02 pentamer on CHO cells with high human ILT2.

Assay [5] addresses T4, human ILT2 extracellular and …. Description: flow cytometry, blocking of HLA-G-Fc-PE on CHO cells with high human ILT2. Here is the method: Samples were analyzed by sequentially gating on the single cell population and plotting histograms representing the fluorescence in the PE channel.
For assay [6], the target named is T5, recombinant human LILRB2/ILT4 (R&D Systems 8429-T4-050) (human, UniProt Q8N423, in part).
T5 construct: Bought
Description: SPR. Here is the method: as §1

Assay [7] concerns the target T6, full-length ILT2 expressed on Jurkat cells (human, UniProt Q8NHL6). Description: cell-based or functional assay.
Assay [8] addresses T4, human ILT2 extracellular and …. Put plainly: flow cytometry, CHO cells with high human ILT2. Here is the method: CHO cells expressing relatively high and low levels of human ILT2 were seeded in a 96-well U-bottom tissue culture plate at a density of 2×10⁵ cells per well in 50 μL of PBS supplemented with 0.5% BSA, 1 mM EDTA and 0.05% sodium azide (FACS Buffer). The cells were incubated for 30 minutes at 4° C. with 50 μL of a series dilution of anti-ILT2 antibodies or isotype control (VRC01 IgG₄) at concentrations from 10 μg/mL to 0.2 ng/mL in FACS Buffer.
For antibody staining, the cells were washed three times with cold FACS Buffer and resuspended in FACS Buffer containing a FITC-conjugated mouse anti-human IgG₄ antibody (Southern Biotech/9190-02) at a final concentration of […]. After a 30-minute incubation in the dark at 4° C., the cells were washed three times and analyzed as above.

Assay [9] has as its target T6, full-length ILT2 expressed on Jurkat …. Put plainly: cell-based or functional assay. This is another data set of the same source.
In assay [10] the target is T7, recombinant human LILRA2/ILT1 (R&D Systems 9040-T4-050) (human, UniProt Q8N149).
T7 construct: Bought
Description: SPR. From the text:
(§2) Irrelevant antibody VRC01 IgG1 N297A was used as a negative isotype control.

Assay [11] addresses T8, recombinant human LILRA6/ILT8 (Sino Biological 29813-H08H-50) (human, UniProt Q6PI73).
T8 construct: Bought
Description: SPR.
From the text: as §2

The target of assay [12] is T9, recombinant human LILRA5/ILT11 (Sino Biological 16059-H08H-100) (human, UniProt A6NI73, in part).
T9 construct: Bought
Put plainly: SPR.
From the text: as §2

Assay [13] concerns the target T10, recombinant human LILRB4/ILT3 (Sino Biological 16742-H08H) (human, UniProt Q8NHJ6, in part).
T10 construct: Bought
Description: SPR.
From the text: as §2

Assay [14] deals with T1, ECD-His tagged human ILT2 haplotype PE01. Put plainly: SPR, LILRA and LILRB family panel.
From the text: as §2

B1: BA252 (antibody, human IgG4 S228P, kappa)
heavy: QVQLVQSGAEVKKPGASVKVSCKASGYTFNRYYMHWVRQAPGQGLEWMGWINPYTGGTNYAQKFQGRVTMTRDTSISTAYMELSRLRSDDTAVYYCASKQPSSDYWGQGTLVTVSSASTKGPSVFPLAPCSRSTSESTAALGCLVKDYFPEPVTVSWNSGALTSGVHTFPAVLQSSGLYSLSSVVTVPSSSLGTKTYTCNVDHKPSNTKVDKRVESKYGPPCPPCPAPEFLGGPSVFLFPPKPKDTLMISRTPEVTCVVVDVSQEDPEVQFNWYVDGVEVHNAKTKPREEQFNSTYRVVSVLTVLHQDWLNGKEYKCKVSNKGLPSSIEKTISKAKGQPREPQVYTLPPSQEEMTKNQVSLTCLVKGFYPSDIAVEWESNGQPENNYKTTPPVLDSDGSFFLYSRLTVDKSRWQEGNVFSCSVMHEALHNHYTQKSLSLSLG
light: DIVMTQSPLSLPVTPGEPASISCRSSQSLLHSNTYNYLDWYLQKPGQSPQLLIYLGSNRASGVPDRFSGSGSGTDFTLKISRVEAEDVGVYYCLQASQAPWTFGQGTKVEIKRTVAAPSVFIFPPSDEQLKSGTASVVCLLNNFYPREAKVQWKVDNALQSGNSQESVTEQDSKDSTYSLSSTLTLSKADYEKHKVYACEVTHQGLSSPVTKSFNRGEC
In the case of B1, the Kd in assay [1] stood at 0.14 nM; in assay [2], 0.59 nM; in assay [3], 0.44 nM; in assay [14] it was 0.2 nM. Moreover, the koff came to 7.1e-05 s⁻¹ in assay [1], 0.00025 s⁻¹ in assay [2] and 0.0002 s⁻¹ in assay [3]. For the same molecule, the values for the kon in assay [1], in [2] and in assay [3] were 520000 M⁻¹ s⁻¹, 420000 M⁻¹ s⁻¹ and 460000 M⁻¹ s⁻¹, respectively. For the same molecule, the IC50 in assay [4] is 0.136 µg/mL; in assay [5], 0.103 µg/mL. Also, the binding result in assay [6], in [10], in assay [11], in assay [12] and in assay [13] was “no binding” each time. Also, the “FcγRIIIa-NFAT luciferase signaling, EC50” value is 0.07 µg/mL in assay [7] and 15.3 µg/mL in assay [9]. In [8], this molecule had an EC50 of 0.165 µg/mL. The “FcγRIIIa-NFAT luciferase signaling, Average AUC normalized to HP-F1” value in assay [9] was 159.
